Measurements as given in PubChem BioAssay AID2147 (National Center for Advancing Translational Sciences (NCATS), 2009).
Only a part is listed here, and it is no random draw. Inconclusive results are not listed. Activity calls are given as the source filed them. The call rests on the fitted dose curve; in most records, active means well fitted inhibition curve with a large enough effect (not every such curve was filed as active); inconclusive means small, poorly fitted or top-dose-only effect, or another doubt; inactive means no such curve, though single readings can be large or run the other way.

The chains behind the UniProt entries cited, without tags or fusion partners. Residues count along the entry.
UniProt B2RXH2, 1-337 limits assumed: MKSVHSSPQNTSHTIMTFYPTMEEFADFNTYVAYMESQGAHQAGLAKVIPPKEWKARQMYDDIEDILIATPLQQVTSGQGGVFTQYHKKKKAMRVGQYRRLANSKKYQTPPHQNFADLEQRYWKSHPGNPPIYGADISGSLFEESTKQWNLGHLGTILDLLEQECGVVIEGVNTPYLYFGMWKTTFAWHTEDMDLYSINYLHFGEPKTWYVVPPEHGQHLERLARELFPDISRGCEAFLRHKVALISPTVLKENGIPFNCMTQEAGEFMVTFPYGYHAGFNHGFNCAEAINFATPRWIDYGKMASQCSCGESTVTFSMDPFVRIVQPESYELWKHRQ

target: Lysine-specific demethylase 4E (Homo sapiens) (UniProt B2RXH2); test: qHTS Assay for Inhibitors of Human Jumonji Domain Containing 2E (JMJD2E); settings: JMJD2E catalytic domain, FDH-coupled NADH fluorescence (FDH is formaldehyde dehydrogenase); at 57.1 µM (top of the series)
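Further: 0% = wells with enzyme and -100% = buffer wells without enzyme; nearly all actives have a fitted effect of over 50% in size.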

Row | Structure (SMILES) | activity change, negative = inhibition
1 | CCC(CO)(C(=O)OC1CN2CCC1CC2)c1ccccc1 (stereo not drawn) | inactive: 9.83%
2 | COc1cc(OC)cc(C(=O)NCC2(N3CCOCC3)CCCCC2)c1 | inactive: 14.4%
3 | CCCOc1ccc(C)cc1CN(CCCl)CCCl | inactive: -1.29%
4 | CCOc1ncccc1C(=O)NCC1(N2CCOCC2)CCCCC1 | inactive: -29.7%
5 | CC(C)(C)OC(=O)N1CCC(Nc2ccccc2)CC1 | inactive: 2.79%
6 | CN(C)c1ccc(C(=O)NCC2(N3CCCCC3)CCCCC2)cc1 | inactive: 7.13%
7 | c1ccc(CN2CCC(Nc3ccccc3)CC2)cc1 | inactive: 2.11%
8 | N#Cc1ccc(C(=O)NCC2(N3CCCCC3)CCCCC2)cc1 | inactive: -1.6%
9 | CCOC(=O)C(CC)C1=NC(C)(C)Cc2ccccc21.O=[N+]([O-])c1cc([N+](=O)[O-])c(O)c([N+](=O)[O-])c1 (stereo not drawn) | inactive: 5.1%
10 | N/C(=N\O)c1c(N)no[n+]1[O-] | inactive: -0.173%
11 | O=C(O)c1cccc(Nc2c([N+](=O)[O-])cc([N+](=O)[O-])cc2[N+](=O)[O-])c1 | inactive: -15.8%
12 | COc1ccc(C(=O)NCC2(N3CCOCC3)CCCCC2)cc1OC | inactive: -1.04%
13 | O=C(OC1CN2CCC1CC2)c1ccc([N+](=O)[O-])cc1 (stereo not drawn) | inactive: 6.09%
14 | COc1ccc(CN(CCCl)CCCl)cc1Cl | inactive: -3.61%
15 | CC(C)c1ccc(NC2CCN(C(=O)OC(C)(C)C)CC2)cc1 | inactive: -13.6%
16 | CN1CCN(CCOC(=O)C(O)(c2ccccc2)c2ccccc2)CC1 | inactive: 3.03%
17 | COc1ccc(NC2CCN(C(=O)OC(C)(C)C)CC2)cc1 | inactive: -14.6%
18 | O=C(NCC1(N2CCOCC2)CCCCC1)c1cc(=O)[nH]c2ccccc12 | inactive: -2.74%
19 | O=C(NCC1(N2CCCCC2)CCCCC1)c1cccc([N+](=O)[O-])c1 | inactive: 0.803%
20 | N#CC1(Nc2ccccc2)CCN(CCc2ccccc2)CC1 | inactive: 4.38%
21 | Cc1ccc(OCC(C)C)c(CN(CCCl)CCCl)c1 | inactive: -1.95%
22 | CCOc1ccc(C)cc1CN(CCCl)CCCl | inactive: -2.82%
23 | COc1ccc(NC2CCN(CCc3ccccc3)CC2)c(OC)c1 | inactive: -7.72%
24 | O=C(NCC1(N2CCOCC2)CCCCC1)c1cc2ccccc2o1 | inactive: -3.81%
25 | CCOC(=O)N1CCC(Nc2ccc(OC)cc2)CC1 | inactive: -13.6%
26 | O=C(OC1CN2CCC1CC2)C1c2ccccc2Oc2ccccc21 (stereo not drawn) | inactive: 3.89%
27 | N#CC1(Nc2ccccc2)CCN(Cc2ccccc2)CC1 | inactive: 1.4%
28 | COc1ccc(C(=O)NCC2(N3CCCCC3)CCCCC2)c(OC)c1OC | inactive: -6.8%
